According to patent US20020045603A1, “Method of inhibiting membrane-type matrix metalloproteinase” (The Research Foundation of State University of New York, priority 1998, published 2002):

Test: Blood levels after oral gavage of adult rats
Details: orally gavaged

For “4-hydroxy-4-de(dimethylamino)tetracycline [CMT-6]”, the blood levels was “no detectable blood levels”.
